# Measured values as given in paper PMC3875306 (Bioorganic & medicinal chemistry letters, 2013).
# Protein sequences, listed by entry. Tags and fused reporters are not part of them. Residues count along the entry.
# UniProt P31424, 21-1203: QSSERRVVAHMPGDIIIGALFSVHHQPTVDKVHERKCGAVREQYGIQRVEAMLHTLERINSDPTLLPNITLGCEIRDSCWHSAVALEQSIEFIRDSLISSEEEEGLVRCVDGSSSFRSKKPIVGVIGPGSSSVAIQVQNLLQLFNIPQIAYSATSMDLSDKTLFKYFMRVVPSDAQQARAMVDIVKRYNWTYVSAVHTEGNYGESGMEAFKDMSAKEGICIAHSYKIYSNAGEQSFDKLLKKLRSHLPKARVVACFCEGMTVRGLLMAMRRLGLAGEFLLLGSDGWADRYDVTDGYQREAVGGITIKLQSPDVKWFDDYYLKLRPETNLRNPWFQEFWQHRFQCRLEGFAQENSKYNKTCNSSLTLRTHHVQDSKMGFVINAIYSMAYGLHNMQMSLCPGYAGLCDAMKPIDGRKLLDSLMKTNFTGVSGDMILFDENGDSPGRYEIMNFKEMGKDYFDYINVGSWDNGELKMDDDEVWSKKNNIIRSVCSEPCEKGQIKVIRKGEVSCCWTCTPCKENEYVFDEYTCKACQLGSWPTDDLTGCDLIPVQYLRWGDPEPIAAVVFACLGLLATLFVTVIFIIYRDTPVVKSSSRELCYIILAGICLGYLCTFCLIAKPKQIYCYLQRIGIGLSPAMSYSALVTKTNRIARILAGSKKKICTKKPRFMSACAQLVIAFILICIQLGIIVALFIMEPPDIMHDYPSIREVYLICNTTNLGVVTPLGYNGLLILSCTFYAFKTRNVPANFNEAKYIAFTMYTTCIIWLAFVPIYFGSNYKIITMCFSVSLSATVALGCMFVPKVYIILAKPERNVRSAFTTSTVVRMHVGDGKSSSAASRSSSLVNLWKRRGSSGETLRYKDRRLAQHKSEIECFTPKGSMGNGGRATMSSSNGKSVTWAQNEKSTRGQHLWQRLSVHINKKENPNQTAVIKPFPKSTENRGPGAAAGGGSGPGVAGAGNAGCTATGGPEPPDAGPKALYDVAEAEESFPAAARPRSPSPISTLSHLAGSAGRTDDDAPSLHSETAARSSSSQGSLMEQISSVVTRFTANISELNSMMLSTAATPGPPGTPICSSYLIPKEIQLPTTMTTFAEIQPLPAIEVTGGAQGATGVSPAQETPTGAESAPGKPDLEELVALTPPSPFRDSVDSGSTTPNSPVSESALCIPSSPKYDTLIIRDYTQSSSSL
# UniProt Q13255, 19-1194: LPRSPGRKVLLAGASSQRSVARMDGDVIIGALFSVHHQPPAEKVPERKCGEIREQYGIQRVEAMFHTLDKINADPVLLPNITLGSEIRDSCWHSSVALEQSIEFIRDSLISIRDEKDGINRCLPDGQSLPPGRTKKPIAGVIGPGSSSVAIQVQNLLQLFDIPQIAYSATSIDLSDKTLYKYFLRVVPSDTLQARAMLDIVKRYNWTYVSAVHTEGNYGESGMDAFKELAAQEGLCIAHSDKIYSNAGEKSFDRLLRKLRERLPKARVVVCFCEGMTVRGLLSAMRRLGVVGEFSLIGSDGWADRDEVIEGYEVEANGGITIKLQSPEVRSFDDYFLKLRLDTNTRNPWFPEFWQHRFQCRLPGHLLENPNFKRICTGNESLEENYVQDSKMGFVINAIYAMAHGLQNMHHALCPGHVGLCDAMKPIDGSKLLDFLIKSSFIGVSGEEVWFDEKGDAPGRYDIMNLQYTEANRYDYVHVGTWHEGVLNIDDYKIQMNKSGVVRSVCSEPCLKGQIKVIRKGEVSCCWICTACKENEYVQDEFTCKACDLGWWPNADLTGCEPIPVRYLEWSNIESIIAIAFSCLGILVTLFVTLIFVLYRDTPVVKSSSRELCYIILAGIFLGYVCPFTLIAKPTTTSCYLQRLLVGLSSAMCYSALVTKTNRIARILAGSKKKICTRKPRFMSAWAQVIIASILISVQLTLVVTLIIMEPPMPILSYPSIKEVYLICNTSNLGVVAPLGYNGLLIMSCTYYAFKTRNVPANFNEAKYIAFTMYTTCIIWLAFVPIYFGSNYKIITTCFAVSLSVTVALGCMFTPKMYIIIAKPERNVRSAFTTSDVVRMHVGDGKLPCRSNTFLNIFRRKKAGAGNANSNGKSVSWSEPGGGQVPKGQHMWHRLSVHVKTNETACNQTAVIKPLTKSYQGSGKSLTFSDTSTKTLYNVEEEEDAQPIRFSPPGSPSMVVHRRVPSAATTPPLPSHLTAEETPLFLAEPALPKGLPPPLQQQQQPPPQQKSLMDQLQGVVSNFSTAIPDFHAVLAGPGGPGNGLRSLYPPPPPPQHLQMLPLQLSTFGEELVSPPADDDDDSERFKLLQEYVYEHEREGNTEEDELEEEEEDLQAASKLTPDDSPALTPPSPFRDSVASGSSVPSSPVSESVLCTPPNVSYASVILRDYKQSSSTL
# How the values were obtained:
# rat mGlu5 = rat mGlu5 (Rattus norvegicus, UniProt P31424)
# human mGlu1 = human mGlu1 (Homo sapiens, UniProt Q13255); experiment: Calcium mobilization mGlu1 assay; details: LLE = pIC50 - cLogP
SMILES,selectivity for mGlu1 versus mGlu5 (rat mGlu5),LLE (ligand-lipophilicity efficiency) (human mGlu1)
C[C@@H]1CN(c2ccccn2)CCN1C(=O)C12CC3CC(CC(C3)C1)C2 [Compound 15],more than 60 fold,2.30
C[C@@H]1CN(C(=O)C23CC4CC(CC(C4)C2)C3)CCN1c1ccccn1 [Compound 17],more than 60 fold,2.29
C[C@@H]1CN(c2cccnc2C#N)CCN1C(=O)C12CC3CC(CC(C3)C1)C2 [Compound 54],,3.41
